Experiments:
[1] = molecular target: Phosphatidylinositol 4,5-bisphosphate 3-kinase catalytic subunit beta isoform (Homo sapiens, UniProt P42338); test: Inhibition of immobilized N-LY294002 bead binding to PI3Kbeta (unknown origin) expressed in HEK293T cells incubated for 1 hr by LC-MS/MS analysis; type: cell-based, HEK-293T
[2] = molecular target: Casein kinase I isoform epsilon (Homo sapiens, UniProt P49674)

Sequences of proteins named here, by UniProt entry; tags and fusion partners are left off. A change or cut given only in a name is not applied to a line headed by its entry.
UniProt P42338: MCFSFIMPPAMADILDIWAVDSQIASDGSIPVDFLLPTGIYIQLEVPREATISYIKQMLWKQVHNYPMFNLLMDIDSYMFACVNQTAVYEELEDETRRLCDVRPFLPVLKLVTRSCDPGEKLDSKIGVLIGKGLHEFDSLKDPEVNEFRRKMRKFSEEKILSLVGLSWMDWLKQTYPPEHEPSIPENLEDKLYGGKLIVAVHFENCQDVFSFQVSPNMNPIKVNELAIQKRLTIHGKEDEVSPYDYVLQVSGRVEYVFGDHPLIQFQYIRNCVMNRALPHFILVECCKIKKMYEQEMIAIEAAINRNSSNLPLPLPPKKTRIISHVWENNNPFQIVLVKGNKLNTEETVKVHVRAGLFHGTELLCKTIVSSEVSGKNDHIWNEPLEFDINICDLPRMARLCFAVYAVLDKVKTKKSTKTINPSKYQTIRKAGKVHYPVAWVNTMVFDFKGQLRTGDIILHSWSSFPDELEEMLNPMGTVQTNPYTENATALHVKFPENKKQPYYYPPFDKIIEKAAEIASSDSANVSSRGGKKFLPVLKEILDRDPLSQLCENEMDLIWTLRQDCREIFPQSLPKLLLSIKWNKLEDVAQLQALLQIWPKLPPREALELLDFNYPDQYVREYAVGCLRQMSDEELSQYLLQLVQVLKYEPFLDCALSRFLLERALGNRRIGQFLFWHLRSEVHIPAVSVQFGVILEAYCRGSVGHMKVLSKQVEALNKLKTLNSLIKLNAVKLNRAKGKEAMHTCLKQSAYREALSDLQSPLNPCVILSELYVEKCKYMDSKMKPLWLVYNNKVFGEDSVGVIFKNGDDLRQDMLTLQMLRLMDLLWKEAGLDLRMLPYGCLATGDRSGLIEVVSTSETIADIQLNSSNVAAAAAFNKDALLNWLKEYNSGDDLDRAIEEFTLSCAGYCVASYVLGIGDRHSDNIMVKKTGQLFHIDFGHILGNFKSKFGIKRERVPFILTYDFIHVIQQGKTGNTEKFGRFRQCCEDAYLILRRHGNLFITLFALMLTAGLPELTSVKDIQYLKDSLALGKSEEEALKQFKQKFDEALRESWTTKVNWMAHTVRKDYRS
UniProt P49674: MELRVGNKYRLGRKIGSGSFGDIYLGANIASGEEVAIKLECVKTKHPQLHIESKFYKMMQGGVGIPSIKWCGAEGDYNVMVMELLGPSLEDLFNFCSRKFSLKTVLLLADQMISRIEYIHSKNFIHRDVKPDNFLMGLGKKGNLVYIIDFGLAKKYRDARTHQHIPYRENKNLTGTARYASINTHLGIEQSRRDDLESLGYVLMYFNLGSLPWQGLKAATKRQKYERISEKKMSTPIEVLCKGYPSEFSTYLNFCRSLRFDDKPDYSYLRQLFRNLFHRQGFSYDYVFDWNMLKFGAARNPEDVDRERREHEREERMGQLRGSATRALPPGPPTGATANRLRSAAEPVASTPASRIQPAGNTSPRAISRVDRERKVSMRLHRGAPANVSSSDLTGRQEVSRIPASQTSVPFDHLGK

Row | SMILES | IC50 [1] | IC50 [2]
1 | O=c1cc(N2CCOCC2)oc2c(-c3ccccc3)cccc12 [LY-294002] | 420 nM | 
2 | Nc1ncnc2c1c(COc1cccc(Cl)c1)nn2C1CCOCC1 |  | 32 to 711 nM

— ChEMBL document CHEMBL3875233, “Non-kinase targets of protein kinase inhibitors” (Nat Rev Drug Discov, 2017)
